Data published in BindingDB's records for patent US8748618 (University of Virginia Patent Foundation, 2014).

Molecular target: T1, Core-binding factor subunit beta (Homo sapiens, UniProt Q13951)
T1 sequence (Q13951 whole entry): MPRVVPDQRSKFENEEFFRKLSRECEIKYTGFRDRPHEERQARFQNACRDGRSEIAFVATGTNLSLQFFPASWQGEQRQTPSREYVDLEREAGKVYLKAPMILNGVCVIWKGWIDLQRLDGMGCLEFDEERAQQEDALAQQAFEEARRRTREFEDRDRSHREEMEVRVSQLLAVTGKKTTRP
Assay: FRET Assay
Excerpt: We have developed effective assays to monitor the inhibition of CBFβ-SMMHC binding to the Runt domain (as well as for CBFβ binding to the Runt domain). We fused the green fluorescent protein derivative Cerulean to the N-terminus of the Runt domain and the green fluorescent protein derivative Venus to the N-terminus of CBFβ-SMMHC (as well as to CBFβ (Gorczynski, Grembecka et al. 2007)). The ratio of the emission intensities at 525 nm and 474 nm, measured after excitation at 433 nm, was used as the readout in this assay. The dynamic range for the FRET assay was determined by adding a 30-fold excess of untagged CBFβ-SMMHC (or CBFβ in the case of CBFβ Runt domain binding) to the assay and the associated change in the FRET ratio was defined as 100% inhibition.

FC(F)(F)Oc1cc(-c2cccnc2)c2nc(-c3ccccn3)[nH]c2c1 [US8748618, AI-10-96] gave an IC50 of 2000 nM.
